The structures appear in SMILES notation. This is a selection; strong and weak results do not stand in their true shares. Activity calls are given as the source filed them. Rule as the data show it: active = inhibition above about 25%; inactive = the rest.

This assay can be described thus: unspecified inhibition readout at 50 µM (AID 740). The settings on record: unspecified screen; active compounds read high.
The inhibition is how much of the control response was suppressed. As for `CP(=O)(Nc1ccccc1)Oc1ccc(F)cc1` (centres undefined), the inhibition is inactive: 0.36%.
As to `CCOC(=O)NC(Sc1ccccc1)C(Cl)(Cl)Cl` (centres undefined), the inhibition entry is “inactive”.
As for `O=P1(Nc2nc3ccc(Cl)cc3s2)COc2ccccc2O1` (centres undefined), the entry is “inactive”; as for `CP(=O)(Nc1ccccc1F)Oc1ccccc1` (centres undefined), inactive: 1.8%; as for `Cc1ccccc1NP(C)(=O)Nc1ccccc1C`, inactive: 1.06%.
As to `CCOP(C)(=S)SCC(=O)NC(C)(CC)C(=O)O` (centres undefined), the inhibition is inactive: 0.11%.
As for `c1nnnn1CCn1cnnn1`, the entry is “inactive”; as for `O=C(OC1CN2CCC1CC2)c1cccc(Cl)c1` (centres undefined), “inactive”; as for `COc1ccc(OP(C)(=O)Nc2cccc(Br)c2)cc1` (centres undefined), “inactive”.
For the compound `CN(C)CCOC(=O)C(O)(c1ccccc1)C1CCCCC1` (centres undefined), the inhibition is inactive: 0.12%.
Consider `CP(=O)(OC12CC3CC(CC(C3)C1)C2)OC12CC3CC(CC(C3)C1)C2`, for which the inhibition is inactive: 1.81%.
On to `CC(C)(C)c1ccc(OP(C)(=O)O)cc1`, for which the inhibition entry is “inactive”.
As for `CP(=O)(Nc1ccc(Cl)cc1)Oc1ccc(F)cc1` (centres undefined), the figure is inactive: 0.41%; as for `CC1CCN(C(=O)Oc2c(Cl)cc(Cl)c3cccnc23)CC1`, “inactive”; as for `CCN(CC)CC(O)COC(=O)C(O)(c1ccccc1)C1CCCCC1` (centres undefined), “inactive”.
Consider `CP(=O)(Oc1ccccc1)N1CCOC1=O` (centres undefined), for which the inhibition was inactive: 0.51%.
As for `Cc1c(NP(C)(=O)Oc2ccc(C(C)C)cc2)c(=O)n(-c2ccccc2)n1C` (centres undefined), the inhibition was inactive: 0.26%.
For the compound `CC(C)CC(=O)NC(Sc1ccc(Cl)cc1)C(Cl)(Cl)Cl` (centres undefined), the inhibition result was “inactive”.
With `COc1ccccc1OP(C)(=O)Nc1ccc(C)cc1C` (centres undefined), the inhibition was inactive: 0.47%.
Regarding `CP(=O)(Nc1ccccn1)Oc1ccccc1` (centres undefined), the inhibition was inactive: 0.64%.
As to `CCc1ccc(OP(C)(=O)O)cc1`, the inhibition is inactive: 0.1%.
Consider `COc1ccc(OP(C)(=O)Nc2ccccn2)cc1` (centres undefined), for which the inhibition is inactive: 0.67%.
As for `CN(C)CCOC(=O)C(O)(c1ccccc1)C1CCCC1` (centres undefined), the figure is inactive: 0.22%; as for `Cc1nc2ccc3ccccc3c2o1.O=[N+]([O-])c1cc([N+](=O)[O-])c(O)c([N+](=O)[O-])c1`, “inactive”.
As to `COc1ccccc1OP(C)(=O)Nc1ccc(C)c(C)c1` (centres undefined), the inhibition entry was “inactive”.
As for `Cc1ccc(NP(C)(=O)Oc2ccccc2)c(C)c1` (centres undefined), the inhibition is inactive: 0.05%.
As for `COc1ccccc1OP(C)(=O)Nc1ccc(C)cc1` (centres undefined), the figure is inactive: 0.7%; as for `COc1ccc(OP(C)(=O)Nc2cccc(F)c2)cc1` (centres undefined), “inactive”.
Take `CCN(CC)C(=S)SC(NC=O)C(Cl)(Cl)Cl` (centres undefined): the inhibition entry is “inactive”.
Consider `O=C(OC1CN2CCC1CC2)C12CC3CC(CC(C3)C1)C2` (centres undefined), for which the inhibition result is “inactive”.
In the case of `CCOP(C)(=S)SCC(=O)NC(C)C(=O)O` (centres undefined), the inhibition is inactive: 0.11%.
As to `CP(=O)(Nc1ccccn1)Oc1ccc(Cl)cc1` (centres undefined), the inhibition entry is “inactive”.
For `CP(=O)(NC(=O)Nc1ccccc1)Oc1ccccc1` (centres undefined), the inhibition result was “inactive”.
Take `CP(=S)(Nn1cnnc1)Oc1ccccc1` (centres undefined): the inhibition result is “inactive”.
For `COc1ccccc1OP(C)(=O)Nc1c(C)cccc1C` (centres undefined), the inhibition result was “inactive”.
With `O=P1(Nc2ccc(Br)cn2)COc2ccccc2OC1`, the inhibition entry was “inactive”.
As for `Cc1nn(-c2ccccc2)c2c1P(=O)(N1CCOCC1)N(C)C(c1ccccc1)=N2` (centres undefined), the entry is “inactive”.
In the case of `Cc1nc2ccc3ccccc3c2s1.O=[N+]([O-])c1cc([N+](=O)[O-])c(O)c([N+](=O)[O-])c1`, the inhibition is inactive: 0.71%.
Take `Cc1ccc(C)c(NP(C)(=O)Oc2ccccc2)c1` (centres undefined): the inhibition was inactive: 0.12%.
`Cc1cc(C)cc(OP(C)(=O)Nc2ccccn2)c1` (centres undefined): the inhibition result was “inactive”.
As for `Cc1cc(C)cc(OP(C)(=O)Nc2ccc(C)cc2C)c1` (centres undefined), the entry is “inactive”.
For the compound `O=[N+]([O-])c1ccc2c(c1)nnn2O`, the inhibition entry was “inactive”.
As to `CCOP1(=S)c2c(C)nn(CCC#N)c2N=C(c2ccc(F)cc2)N1C` (centres undefined), the inhibition entry is “inactive”.
As for `O=P(Nc1nccs1)(c1ccccc1)c1nc2ccccc2s1` (centres undefined), the entry is “inactive”.

The record behind these values is PubChem BioAssay AID740 (SRMLSC, 2007).
